Our source for the Km, kcat and kcat/Km values is publication PMC10350917, “Synthesis of a Novel Boronic Acid Transition State Inhibitor, MB076: A Heterocyclic Triazole Effectively Inhibits Acinetobacter-Derived Cephalosporinase Variants with an Expanded-Substrate Spectrum” (Journal of Medicinal Chemistry, 2023).

The test system of this data set is CO/N=C(\C(=O)N[C@@H]1C(=O)N2C(C(=O)O)=C(COC(C)=O)CS[C@H]12)c1csc(N)n1. The experiment in a line: purified protein, by the assay type. Particulars: 50 mM NaH2PO4 pH 7.4, room temperature.

On to ADC-7 (Acinetobacter baumannii), for which, for the setting “other: ADC-7, substrate”, the Km is 1.23 µM, the kcat came to 0.0475 ± 0.0012 s⁻¹ and the kcat/Km was determined as 38600 ± 6300 M⁻¹ s⁻¹.

With ADC-30 (Acinetobacter baumannii), for the setting “other: ADC-30, substrate”, the Km turned out to be 4.35 µM, the catalytic constant (kcat) turned out to be 0.117 ± 0.009 s⁻¹ and the kcat/Km came to 27000 ± 13000 M⁻¹ s⁻¹.

With ADC-33 (Acinetobacter baumannii), under “other: ADC-33, substrate”, the Km was 7.11 µM, the kcat came to 0.463 ± 0.014 s⁻¹ and the kcat/Km was 63000 ± 10000 M⁻¹ s⁻¹.

As for ADC-162 (Acinetobacter baumannii), for the setting “other: ADC-162, substrate”, the Michaelis-Menten constant (Km) was 115.2 ± 15.5 µM, the kcat worked out at 25.4 ± 1.4 s⁻¹ and the catalytic efficiency (kcat/Km) came out at 220000 ± 42000 M⁻¹ s⁻¹.
